Measured properties of organic chemicals

From the experimental data distributed with OPERA 2.9.

The melting point is given in degrees Celsius.
The boiling point refers to atmospheric pressure (760 mmHg), by the definition of the set.
The octanol-water partition coefficient is given as log10; larger values mean a more lipophilic compound.
Solubility in water is on a log10 molar scale (set defined at 25 °C).
Vapor pressures (log10 mmHg) refer to near room temperature, 15 to 30 °C; higher is more volatile.
The Henry's law constant is on a log10 scale in atm·m3/mol (set defined at 25 °C); higher favours air over water.

{"smiles": "O=C(O)[C@H](O)c1ccccc1Cl", "name": "(R)-(-)-2-Chloromandelic acid", "logP (octanol/water)": "1.51", "log vapor pressure (log10 mmHg)": "-6.581"}
{"smiles": "COC(C)(C)CCOC(C)=O", "name": "1-Butanol, 3-methoxy-3-methyl-, acetate", "logP (octanol/water)": "1.6", "log vapor pressure (log10 mmHg)": "0.287"}
{"smiles": "CCCCCCCCCCCCCCCCCCCCCC(=O)NCCCN(C)C", "name": "N-(3-(Dimethylamino)propyl)docosanamide", "melting point (°C)": "79.4", "water solubility (log10 mol/L)": "-4.674"}
{"smiles": "O=C(O)c1c(F)cc(Br)cc1F", "name": "4-Bromo-2,6-difluorobenzoic Acid", "logP (octanol/water)": "2.5", "water solubility (log10 mol/L)": "-2.152", "log vapor pressure (log10 mmHg)": "-5.782"}
{"smiles": "CN[C@@H]1[C@@H](O[C@H]2O[C@H](CO)[C@@H](N)[C@H](O)[C@H]2O)O[C@H]2C[C@@H](N)[C@@H](O[C@H]3[C@H](O)[C@@H](O)[C@H](N)C[C@@H]3N)O[C@@H]2[C@@H]1O", "name": "Apramycin", "melting point (°C)": "189", "water solubility (log10 mol/L)": "-0.255"}
{"smiles": "C=CCOC(=O)COc1ccccc1", "name": "Allyl phenoxyacetate", "melting point (°C)": "1.1", "logP (octanol/water)": "2.33", "water solubility (log10 mol/L)": "-2.536", "log vapor pressure (log10 mmHg)": "-1.202"}
{"smiles": "Cc1ccc2c(c1)[C@H](Nc1nc(N)nc(C(C)F)n1)[C@@H](C)C2", "stereo": "stereo not given in full", "name": "Indaziflam", "log vapor pressure (log10 mmHg)": "-9.726", "Henry's law constant (log10 atm·m3/mol)": "-10.58"}
{"smiles": "CCCCC[N+](=O)[O-]", "name": "1-Nitropentane", "boiling point (°C)": "172", "water solubility (log10 mol/L)": "-1.955"}
{"smiles": "COc1cc2[nH]c(=O)c(=O)[nH]c2cc1N", "name": "6-Amino-1,4-dihydro-7-methoxy-2,3-quinoxalinedione", "logP (octanol/water)": "-0.31", "water solubility (log10 mol/L)": "-3.029"}
{"smiles": "CCCCCCCCCCCCCCCCCC(=O)NCCO", "name": "N-(2-Hydroxyethyl)octadecanamide", "melting point (°C)": "88.8", "logP (octanol/water)": "4.46", "log vapor pressure (log10 mmHg)": "-8.657"}
{"smiles": "CCCC(=O)C1=C(O)CC(C2CCCSC2)CC1=O", "stereo": "centres undefined", "name": "2-Butanoyl-3-hydroxy-5-(thian-3-yl)cyclohex-2-en-1-one", "melting point (°C)": "65.55", "logP (octanol/water)": "4.1", "water solubility (log10 mol/L)": "-4.501", "log vapor pressure (log10 mmHg)": "-7.426"}
{"smiles": "CCOc1cc(N=Nc2c(Br)cc([N+](=O)[O-])cc2[N+](=O)[O-])c(NC(C)=O)cc1N(CCOC(C)=O)CCOC(C)=O", "name": "C.I. Disperse Blue 79", "melting point (°C)": "157", "water solubility (log10 mol/L)": "-8.455"}
{"smiles": "CCCCCCCCCCCCCCCCCCCCCCOC(=O)CCCCCCCCC(=O)OCCCCCCCCCCCCCCCCCCCCCC", "name": "Didocosyl sebacate", "water solubility (log10 mol/L)": "-6.406", "log vapor pressure (log10 mmHg)": "-5.011"}
{"smiles": "CC(c1ccccc1)c1ccc(O)cc1O", "stereo": "centres undefined", "name": "4-(1-Phenylethyl)benzene-1,3-diol", "melting point (°C)": "79", "boiling point (°C)": "366.5", "logP (octanol/water)": "2.11", "water solubility (log10 mol/L)": "-1.734", "log vapor pressure (log10 mmHg)": "-7.097"}
{"smiles": "CO[C@@H]1C[C@H](C)CC[C@H]1C(C)C", "logP (octanol/water)": "4.369", "water solubility (log10 mol/L)": "-3.93", "log vapor pressure (log10 mmHg)": "-0.23"}
{"smiles": "COC(=O)c1cc(Cl)ccc1Cl", "name": "Methyl 2,5-dichlorobenzoate", "water solubility (log10 mol/L)": "-3.37", "log vapor pressure (log10 mmHg)": "0.38", "Henry's law constant (log10 atm·m3/mol)": "-4.794"}
{"smiles": "CC(C)(C(=O)c1cccnc1)c1cccnc1", "name": "Metyrapone", "logP (octanol/water)": "1.8", "water solubility (log10 mol/L)": "-2.724"}
{"smiles": "C[C@H](CCCNCC(=O)O)[C@H]1CC[C@H]2[C@@H]3CC[C@@H]4C[C@H](O)CC[C@]4(C)[C@H]3C[C@H](O)[C@]12C", "name": "Glycodeoxycholic acid", "logP (octanol/water)": "2.25", "water solubility (log10 mol/L)": "-5.208"}
{"smiles": "O=C1CCCCCCCCCCC(=O)OCCO1", "name": "1,4-Dioxacyclohexadecane-5,16-dione", "logP (octanol/water)": "3.65", "water solubility (log10 mol/L)": "-3.534", "log vapor pressure (log10 mmHg)": "-3.678"}
{"smiles": "NCCCCN", "name": "Putrescine", "water solubility (log10 mol/L)": "1", "log vapor pressure (log10 mmHg)": "0.523"}
{"smiles": "CCCCOc1ccc(C(=O)CCN2CCCCC2)cc1", "name": "Dyclonine", "logP (octanol/water)": "3.7", "water solubility (log10 mol/L)": "-3.799"}
{"smiles": "CCCCCCCCCCCCCCCCOC(=O)Oc1c(Cl)cc(C(=O)OCC)cc1Cl", "melting point (°C)": "45.7", "logP (octanol/water)": "9.29", "log vapor pressure (log10 mmHg)": "-9.299"}
{"smiles": "OCc1ccc(Cl)cc1Cl", "name": "2,4-Dichlorobenzyl alcohol", "logP (octanol/water)": "2.8", "log vapor pressure (log10 mmHg)": "-2.936"}
{"smiles": "CCO[Si](CCCC1CC(=O)OC1=O)(OCC)OCC", "stereo": "centres undefined", "name": "2,5-Furandione, dihydro-3-[3-(triethoxysilyl)propyl]-", "boiling point (°C)": "359.5", "log vapor pressure (log10 mmHg)": "-3.011"}
{"smiles": "O=C1CCCCCCCCCCCCCCCO1", "name": "Oxacycloheptadecan-2-one", "logP (octanol/water)": "7.3", "water solubility (log10 mol/L)": "-6.393", "log vapor pressure (log10 mmHg)": "-3.539"}
{"smiles": "Cc1c(O)cccc1O", "name": "2-Methyl-1,3-benzenediol", "logP (octanol/water)": "0.183", "log vapor pressure (log10 mmHg)": "-3.894"}
{"smiles": "NCCN1CCNC1=O", "name": "1-(2-Aminoethyl)imidazolidin-2-one", "logP (octanol/water)": "0.017", "log vapor pressure (log10 mmHg)": "-3.014"}

A selection of 3 entries from above:

{"smiles": "CN[C@@H]1[C@@H](O[C@H]2O[C@H](CO)[C@@H](N)[C@H](O)[C@H]2O)O[C@H]2C[C@@H](N)[C@@H](O[C@H]3[C@H](O)[C@@H](O)[C@H](N)C[C@@H]3N)O[C@@H]2[C@@H]1O", "name": "Apramycin", "melting point (°C)": "189", "water solubility (log10 mol/L)": "-0.255"}
{"smiles": "O=C(O)[C@H](O)c1ccccc1Cl", "name": "(R)-(-)-2-Chloromandelic acid", "logP (octanol/water)": "1.51", "log vapor pressure (log10 mmHg)": "-6.581"}
{"smiles": "Cc1c(O)cccc1O", "name": "2-Methyl-1,3-benzenediol", "logP (octanol/water)": "0.183", "log vapor pressure (log10 mmHg)": "-3.894"}

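The OPERA project collected these measurements from public sources as training and test data for property models. A listed value is a point estimate from one report or more. Conditions of the individual experiments are not part of the data. A value may pool stereoisomers or salt forms, and the file does not say which form was measured. Unmarked limits or estimates from the upstream databases cannot be ruled out.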